Patent US11944111B2, “Stabilizing sorbic acid in beverage syrup” (PepsiCo, Inc., priority 2015, dated 2024)

Conditions: UV-vis 263 nm, saturated solution, aged at 40 F. 0 day

## C/C=C/C=C/C(=O)[O-].[K+] [Potassium Sorbate]
  Abs (pH 3.0): 1.716
